According to patent US5723719A, “Transgenic mouse as model for diseases involving dopaminergic dysfunction” (Health Research Inc., priority 1995, dated 1998):
Where two headings read alike, the source gives them in different places.

System: transgenic mice and control mice
Conditions: mouse, in vivo

CCCN1CCC[C@@H]2Cc3n[nH]cc3C[C@H]21 [quinpirole]
Change in baseline net turns after injection: no significant change in baseline net turns | Change in net turns after injection: dose-related decreases in net turns | Change in net turns over baseline levels: dose-related increase in net turns over baseline levels | Change in net turns after injection (sc, 0.25 mg/kg): no change | Change in net turns over baseline levels (sc, 0.25 mg/kg): not at the 0.25 mg/kg dose
